The experiment has as its target T1, GluN2B receptors (Rattus norvegicus, UniProt P35439+Q00960).
T1 construct: from tissue; host or cells: brain of living male rats (PET imaging)
Kind of experiment: ED50 for pre-blocking of GluN2B radioligand uptake in rat whole brain (PET). In kind it is in vivo. The conditions noted are these: radioligand ^11C-(−)-NR2B-Me, AUC 20-90 min. As to the method:
For radioligand injection, a polyethylene catheter (PE 10) was inserted into the penile vein of a male rat and then secured with tissue adhesive and tape. […] Body temperature was monitored with a rectal probe. All PET scans were performed on a microPET Focus 220 scanner (Siemens Medical Solutions) (7,8). Data were acquired in listmode and reconstructed with Fourier rebinning + 2D filtered backprojection. A transmission scan was acquired before radioligand injection for attenuation correction. Dynamic scanning began at the time of a one-minute intravenous bolus injection of the radioligand under study (55 ± 19 MBq; volume 0.2 to 1.0 mL). The injected mass dose was 3 ± 1 nmol/kg. Challenge agents were administered intravenously 10 minutes before the radioligand for pre-blocking studies or 10 minutes after the radioligand for displacement studies. Tomographic images were analyzed with pixel-wise modeling computer software (PMOD 2.6; PMOD Group). Regions-of-interest in the brain were delineated, and time-activity curves calculated as SUV versus time.
Pre-blocking and displacement experiments were performed to assess radioligand target engagement and radioligand selectivity in vivo. […] Areas-under the curve (AUCs) from time-activity curves between 20 and 90 minutes were calculated for each radioligand. […] Numerical data are expressed as mean ± S.D. for n>2, or as mean and range for n = 2.

Sequences of proteins named here, by UniProt entry; tags and fusion partners are left off. Residues count along the entry.
UniProt Q00960, 27-1482: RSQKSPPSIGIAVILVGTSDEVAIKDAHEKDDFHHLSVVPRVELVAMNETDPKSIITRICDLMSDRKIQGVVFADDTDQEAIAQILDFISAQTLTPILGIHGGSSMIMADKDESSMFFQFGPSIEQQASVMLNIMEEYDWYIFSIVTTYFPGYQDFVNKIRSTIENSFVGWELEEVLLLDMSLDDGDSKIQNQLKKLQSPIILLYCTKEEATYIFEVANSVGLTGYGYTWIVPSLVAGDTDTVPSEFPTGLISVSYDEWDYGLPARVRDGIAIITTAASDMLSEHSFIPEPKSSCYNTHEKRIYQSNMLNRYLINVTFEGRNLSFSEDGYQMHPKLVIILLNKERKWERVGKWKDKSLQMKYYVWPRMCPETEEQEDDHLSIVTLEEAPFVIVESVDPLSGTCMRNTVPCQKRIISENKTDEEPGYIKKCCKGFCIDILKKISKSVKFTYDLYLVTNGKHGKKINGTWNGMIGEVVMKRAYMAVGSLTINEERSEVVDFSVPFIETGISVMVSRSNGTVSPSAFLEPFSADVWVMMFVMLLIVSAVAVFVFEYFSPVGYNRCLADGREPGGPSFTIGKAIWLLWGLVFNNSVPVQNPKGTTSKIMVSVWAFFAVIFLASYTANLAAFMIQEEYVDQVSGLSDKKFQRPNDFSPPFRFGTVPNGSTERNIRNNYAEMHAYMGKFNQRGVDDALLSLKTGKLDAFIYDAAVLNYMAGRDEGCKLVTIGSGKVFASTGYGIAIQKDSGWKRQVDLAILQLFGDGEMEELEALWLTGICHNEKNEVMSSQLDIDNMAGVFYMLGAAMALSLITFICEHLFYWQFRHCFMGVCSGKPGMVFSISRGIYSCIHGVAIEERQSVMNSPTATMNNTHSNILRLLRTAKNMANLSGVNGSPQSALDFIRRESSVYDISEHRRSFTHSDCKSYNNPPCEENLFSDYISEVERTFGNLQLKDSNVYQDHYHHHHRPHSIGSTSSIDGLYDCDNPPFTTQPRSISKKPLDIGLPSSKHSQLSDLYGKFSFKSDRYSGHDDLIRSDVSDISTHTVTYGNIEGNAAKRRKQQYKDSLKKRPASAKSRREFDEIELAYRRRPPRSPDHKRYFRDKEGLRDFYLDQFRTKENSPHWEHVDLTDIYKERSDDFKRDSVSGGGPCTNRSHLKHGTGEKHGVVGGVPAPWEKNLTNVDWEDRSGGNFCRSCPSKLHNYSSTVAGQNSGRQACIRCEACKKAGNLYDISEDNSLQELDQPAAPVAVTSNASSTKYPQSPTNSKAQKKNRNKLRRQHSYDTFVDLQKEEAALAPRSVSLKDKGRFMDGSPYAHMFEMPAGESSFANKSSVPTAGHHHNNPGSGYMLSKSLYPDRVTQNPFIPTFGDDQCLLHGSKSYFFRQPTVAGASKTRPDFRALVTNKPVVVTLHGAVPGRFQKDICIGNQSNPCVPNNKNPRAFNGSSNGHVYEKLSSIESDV

Experimental findings from paper PMC10076467 (EJNMMI Research, 2023) are described below.

For (+)-SKF10047, the “ED50 in rat whole brain in vivo ^11C-(−)-NR2B-Me” value is recorded as more than 1000 nmol/kg.
